Results: US11698366B2, “Human tissue stem cell and use thereof” (KEIO UNIVERSITY, priority 2017, dated 2023)

Test system: cancer stem cell
Assay: LGR5-iCT/CMV-GFP organoid screening, tdTomato fluorescence
Type: cell-based, human
Details: final concentration shown in FIG. 8; DMSO control
From the text: A CMV-GFP construct was further introduced into the LGR5-iCT organoid prepared in Experimental Example 4. In the CMV-GFP construct, a GFP gene was linked downstream of the CMV promoter, which is the forced expression promoter. Therefore, regardless of whether or not the LGR5 gene was expressed, the GFP gene was expressed in all cells and emitted fluorescence of the GFP protein. Hereinafter, these organoids may be referred to as “LGR5-iCT/CMV-GFP organoids” in some cases.
In the LGR5-iCT/CMV-GFP organoid, survival activity of the cancer cell can be observed by fluorescence of GFP, and survival activity of the cancer stem cell can be observed by fluorescence of tdTomato.
Using the LGR5-iCT/CMV-GFP organoid, high-throughput screening of existing anticancer drugs used for the treatment of colon cancer was performed, and the effects on the cancer cells and the cancer stem cells were examined.
FIG. 8 is a micrograph of an organoid showing a typical result. In FIG. 8, “BRIGHT FIELD” indicates a bright field observation image. “CMV-GFP” indicates a fluorescence micrograph obtained by observing GFP fluorescence”. “LGR5-tdTomato” indicates a fluorescence micrograph obtained by observing tdTomato fluorescence. “Merge” indicates the result obtained by synthesizing the bright-field observation image, the GFP fluorescence micrograph, and the micrograph of tdTomato fluorescence. […]

Cetuximab
effect against the cancer stem cell (tdTomato fluorescence): significantly increases the survival activity
